From patent US20200123244A1 (SHANGHAI BIOMABS PHARMACEUTICALS, published 2020)

Chains of the proteins cited; added tags and fusions are not shown. Residues count along the entry.
UniProt P01375, 77-233 limits assumed: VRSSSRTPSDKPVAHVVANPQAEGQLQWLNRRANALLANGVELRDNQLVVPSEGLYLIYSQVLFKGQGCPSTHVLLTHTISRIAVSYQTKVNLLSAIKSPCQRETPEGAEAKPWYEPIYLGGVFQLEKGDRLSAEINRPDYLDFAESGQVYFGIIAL

Legend:
[1] = target: T1, recombinant natural type human TNF-α (human, UniProt P01375 77-233); test: competitive ELISA on coated TNF-α, competitor HRP-labeled CMAB008; experiment 2
T1 construct: also called rhTNF-α; rh-TNF-α

[2] = target: T1, recombinant natural type human TNF-α; test: BLI (Octet), fit value printed in the row of TNF-α 2.5 nM
[3] = target: T1, recombinant natural type human TNF-α; test: BLI (Octet), fit value printed in the row of TNF-α 20 nM
[4] = target: T1, recombinant natural type human TNF-α; test: BLI (Octet), antibody loaded on sensor, TNF-α in solution; lot 1301
[5] = target: T1, recombinant natural type human TNF-α; test: cell-based or functional assay
[6] = target: T1, recombinant natural type human TNF-α; test: calculated from the competitive ELISA EC50s with the literature Ka of Remicade (10^10 M-1) as reference
[7] = target: T1, recombinant natural type human TNF-α; test: competitive ELISA on coated TNF-α, competitor HRP-labeled CMAB008; experiment 1
[8] = target: T1, recombinant natural type human TNF-α; test: competitive ELISA on coated TNF-α, competitor HRP-labeled CMAB008; mean ± S of 3
[9] = target: T1, recombinant natural type human TNF-α; test: cell-based or functional assay; remark: listed apart in the source
[10] = target: T1, recombinant natural type human TNF-α; test: competitive ELISA on coated TNF-α, competitor HRP-labeled CMAB008; experiment 3
[11] = target: T1, recombinant natural type human TNF-α; test: BLI (Octet), fit value printed in the row of TNF-α 5 nM
[12] = target: T1, recombinant natural type human TNF-α; test: BLI (Octet), fit value printed in the row of TNF-α 10 nM

B1: recombinant chimeric anti-TNF-α monoclonal antibody CMAB008 (antibody, human IgG1, kappa, V domains shown)
VH: EVKLEESGGGLVQPGGSMKLSCVASGFIFSNHWMNWVRQSPEKGLEWVAEIRSKSINSATHYAESVKGRFTISRDDSKSAVYLQMTDLRTEDTGVYYCSRNYYGSTYDYWGQGTTLTVSS
VL: DILLTQSPAILSVSPGERVSFSCRASQFVGSSIHWYQQRTNGSPRLLIKYASESMSGIPSRFSGSGSGTDFTLSINTVESEDIADYYCQQSHSWPFTFGSGTNLEVKR
notes: also called CMAB008 #1301; CMA 008
EC50 [1]: 0.14 mg/L
Kd [2]: 0.203 nM
koff [2]: 1.98e-05 s⁻¹
kon [2]: 97800 M⁻¹ s⁻¹
Kd [3]: 0.203 nM
koff [3]: 1.98e-05 s⁻¹
kon [3]: 97800 M⁻¹ s⁻¹
Kd [4]: 0.203 nM
EC50 (ED50) of neutralizing TNF-α killing of L929 cells, experiment 1 [5]: 0.0166 mg/L
EC50 (ED50) of neutralizing TNF-α killing of L929 cells, experiment 2 [5]: 0.0174 mg/L
EC50 (ED50) of neutralizing TNF-α killing of L929 cells, experiment 3 [5]: 0.0162 mg/L
Ka [6]: ~6.8e+09 M⁻¹
EC50 [7]: 0.144 mg/L
EC50 [8]: 0.146 mg/L
fold increase of the median lethal dose of rh-TNF-α (from 0.46 µg/animal) with 500 µg/animal CMAB008 [9]: 18.9 times
EC50 [10]: 0.153 mg/L
Kd [11]: 0.203 nM
koff [11]: 1.98e-05 s⁻¹
kon [11]: 97800 M⁻¹ s⁻¹
Kd [12]: 0.203 nM
koff [12]: 1.98e-05 s⁻¹
kon [12]: 97800 M⁻¹ s⁻¹
